From patent US20070185094A1, “Novel 3-substitued-1,4-benzodiazepines” (ASTON UNIVERSITY, priority 2003, published 2007) come the findings set out here.

Amino acid sequences for entries named in this document (tags omitted). Residues count along the entry.
UniProt H0VZC5, 1-426: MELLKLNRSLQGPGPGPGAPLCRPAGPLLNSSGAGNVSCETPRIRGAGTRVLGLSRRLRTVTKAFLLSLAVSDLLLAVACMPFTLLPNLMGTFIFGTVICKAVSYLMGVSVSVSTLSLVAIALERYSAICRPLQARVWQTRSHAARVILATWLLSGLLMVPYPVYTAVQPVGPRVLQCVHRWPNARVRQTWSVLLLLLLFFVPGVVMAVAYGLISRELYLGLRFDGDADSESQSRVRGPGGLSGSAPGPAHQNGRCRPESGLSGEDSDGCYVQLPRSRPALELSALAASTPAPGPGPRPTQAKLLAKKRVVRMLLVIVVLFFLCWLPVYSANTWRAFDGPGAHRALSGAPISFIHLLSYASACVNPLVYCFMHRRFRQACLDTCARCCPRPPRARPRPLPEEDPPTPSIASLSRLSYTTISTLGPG
UniProt P30551, whole entry: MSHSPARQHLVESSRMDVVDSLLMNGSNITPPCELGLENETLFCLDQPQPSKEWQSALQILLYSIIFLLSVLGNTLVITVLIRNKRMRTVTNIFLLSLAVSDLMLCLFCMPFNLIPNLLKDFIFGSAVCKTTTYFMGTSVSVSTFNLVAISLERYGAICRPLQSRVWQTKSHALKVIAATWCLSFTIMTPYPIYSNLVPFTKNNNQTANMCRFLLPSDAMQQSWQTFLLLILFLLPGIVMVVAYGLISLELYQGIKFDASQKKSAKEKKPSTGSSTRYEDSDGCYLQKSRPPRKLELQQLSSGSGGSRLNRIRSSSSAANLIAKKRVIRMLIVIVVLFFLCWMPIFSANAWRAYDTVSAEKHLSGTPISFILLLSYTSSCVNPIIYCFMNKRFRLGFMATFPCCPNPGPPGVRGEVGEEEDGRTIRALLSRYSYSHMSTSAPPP

Where two headings read alike, the source gives them in different places.

The term IC50 denotes the midpoint of a concentration-inhibition curve.

One assay has as its target CCKB receptor (Cavia porcellus, UniProt H0VZC5). The assay is described as follows: 125I-CCK-8 receptor binding assay, CCKB (guinea pig cerebral cortex). As for the experimental part: CCKA and CCKB receptor binding assays were performed, by using guinea pig cerebral cortex (CCKB) or rat pancreas (CCKA). […]. J. Pharmacol., 269, 249-254]. Pancreatic membranes were prepared in a similar way but by Charpentier et al [(1988), Cyclic cholecystokinin analogues with high selectivity for central receptors., Proc Natl Acad Sci USA, 85, 1968-1972]. The […] CCK binding assay: Tissues were homogenised in ice cold sucrose (0.32 M, 25 ml) for 15 strokes at 500 rpm and centrifuged at 13000 rpm for 10 mins. The supernatant was re-centrifuged at 13000 rpm for 20 mins. The resulting pellet was re-dispersed to the required volume of buffer at 500 rpm and stored in aliquots at […].
The samples were incubated {with membranes (0.1 mg/ml)} in 20 mM Hepes, 1 mM EGTA, 5 mM MgCl2, 150 mm NaCl, 0.25 mg/ml bacitracin at pH 6.5 for 2 hrs at RT and then […] by centrifugation at 1100 rpm for 5 minutes. The membrane pellets were washed twice with water and the bound radioactivity was measured in a Packard Cobra Auto-gamma counter (B5005). All binding assays were carried out with L-363, 260 as an internal non-specific standard. Controls (no compound) were also added. All samples were made in duplicate and repeated twice. All compounds were initially screened for percentage inhibition at 20 μM. […]

A further assay concerns the target CCKA receptor (Rattus norvegicus, UniProt P30551). The assay is described as follows: 125I-CCK-8 receptor binding assay, CCKA (rat pancreas).

Regarding `Cc1cccc(NC2N=C(c3ccccc3)c3cc(Cl)ccc3NC2=O)c1` (stereo not shown), the IC50 at CCKB receptor (read-out: IC50 CCKB, Table 3) came out at 3800 nM; on CCKA receptor (read-out: IC50 CCKA), 11 nM. For the same molecule, on CCKA receptor (Table 3, ratio of IC50 values), the “Ratio CCKB:CCKA” value is 380.
Take `O=C1Nc2ccc(Cl)cc2C(c2ccccc2)=NC1Nc1cc2ccc3cccc4ccc(c1)c2c34` (stereo not shown): on CCKB receptor (read-out: CCKB IC50, Table 1), the IC50 was 840 nM.
